The record followed here is PubChem BioAssay AID504357 (The Scripps Research Institute Molecular Screening Center, 2011).

By UniProt entry, the sequences of proteins in these tests, tags left out.
UniProt P35372, whole entry, looked up: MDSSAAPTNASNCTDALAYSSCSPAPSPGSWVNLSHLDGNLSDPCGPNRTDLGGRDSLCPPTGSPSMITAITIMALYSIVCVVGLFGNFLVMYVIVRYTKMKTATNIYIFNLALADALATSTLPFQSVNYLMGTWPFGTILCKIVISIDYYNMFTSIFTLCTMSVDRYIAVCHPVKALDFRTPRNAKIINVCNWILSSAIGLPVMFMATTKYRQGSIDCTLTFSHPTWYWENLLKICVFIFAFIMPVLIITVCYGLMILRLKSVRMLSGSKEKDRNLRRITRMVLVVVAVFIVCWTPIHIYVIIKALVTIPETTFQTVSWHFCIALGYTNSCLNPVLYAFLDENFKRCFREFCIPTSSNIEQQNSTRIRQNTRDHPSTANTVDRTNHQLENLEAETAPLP
UniProt P41143, whole entry, looked up: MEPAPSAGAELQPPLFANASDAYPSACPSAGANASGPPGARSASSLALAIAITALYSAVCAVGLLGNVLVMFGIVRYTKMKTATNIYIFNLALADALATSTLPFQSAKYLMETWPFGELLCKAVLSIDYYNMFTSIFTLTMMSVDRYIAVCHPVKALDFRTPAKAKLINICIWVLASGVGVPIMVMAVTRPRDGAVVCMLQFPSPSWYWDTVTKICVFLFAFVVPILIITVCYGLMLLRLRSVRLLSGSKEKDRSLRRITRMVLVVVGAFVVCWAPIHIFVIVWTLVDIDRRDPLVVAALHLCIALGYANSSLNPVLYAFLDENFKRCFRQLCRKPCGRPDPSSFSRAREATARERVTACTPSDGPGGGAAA

The list shows a part of the results, in another mix than the full data. The source made the active and inactive calls. Cut-off read from the data, not from the text of the source: active = inhibition above about 22% (passing the limit was not always enough); inactive = the rest.

The target of the experiment is Mu-type opioid receptor (Homo sapiens) + Delta-type opioid receptor (Homo sapiens) (UniProt P35372+P41143). Put plainly: OPRM1-OPRD1 heterodimer inverse agonism – cell-based, luminescence, primary screen (AID 504357).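 Note: 0% = cells with DMSO and 100% = wells without cells with DMSO.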 The conditions noted are these: cell-based MOR-DOR heterodimer luminescence, at 9.3 µM, hits give high values.
Broadly, the inhibition is the drop in the measured response relative to a control, in per cent. As for `CC1c2nc3ccccc3n2C(CC(=O)NCc2ccccn2)C(=O)N1Cc1ccccc1` (stereo not drawn), the inhibition was inactive: 10.7%.

Turning to `O=C(Nc1nc2ccccc2n1CCN1CCCC1)c1ccc(Cl)cc1`, the inhibition is inactive: -17.3%.

On to `CC(=O)Nc1ccc(C(=O)CSc2nc3ccccc3n2CC(=O)N2CCCC2)cc1`, for which the inhibition is inactive: 8.44%.

`CC(C)[C@H](NC(=O)N1CCn2c1nc1ccccc12)C(=O)NC1CCCCC1`: the inhibition was inactive: 19.2%.

For the compound `CCN(CC)CCNC(=S)N1CCn2c(nc3ccccc32)C1`, the inhibition was inactive: 12.6%.

As for `Nc1ncnc2c1ncn2CCN1CCOCC1`, the inhibition was inactive: 15.5%.

`Cc1ccc2c(c1)C1CN(C)CCC1N2C(=O)COc1ccc(N(C)C(=O)C(C)(C)C)cc1` (stereo not drawn): the inhibition was inactive: 7.57%.

Turning to `Cc1ccc2c(c1)C1CN(C)CCC1N2C(=O)c1cccs1` (stereo not drawn), the inhibition was inactive: 6.93%.

In the case of `COc1ccc(/C=N/c2nc3ccccc3n2CCN2CCCCC2)cc1OC`, the inhibition was inactive: 6%.

Turning to `Cc1cc(SC(NC(=O)c2ccccc2)C(Cl)(Cl)Cl)nc(C(C)C)n1` (stereo not drawn), the inhibition was inactive: -1.05%.

As to `CC(=O)Nc1ccc(NC(=O)Cn2c(CC(=O)N3CCCC3)nc3ccccc32)cc1`, the inhibition is inactive: 10.8%.

As to `Cc1ccc(-c2csc(N3CCC[C@@H]3C(=O)NCCn3c(C(F)(F)F)nc4ccccc43)n2)cc1`, the inhibition was inactive: -11%.

Take `CCCNC(=O)CC1C(=O)N(Cc2ccccc2)C(C)c2nc3ccccc3n21` (stereo not drawn): the inhibition is inactive: -3.95%.

For `CCCN(C(=O)Cn1c(C(F)(F)F)nc2ccccc21)C1CCS(=O)(=O)C1` (stereo not drawn), the inhibition was inactive: 6.1%.

As to `CC(C)[C@H](NC(=O)N1CCn2c1nc1ccccc12)C(=O)N1CCCCC1`, the inhibition is inactive: 1.86%.

As for `CSc1nc(N)nc2c1ncn2CC(=O)NCc1ccccc1`, the inhibition was inactive: 1.52%.

For `COc1ccc(S(=O)(=O)N2CCn3c2nc2ccccc23)cc1`, the inhibition was inactive: -2.37%.

As for `Nc1ncnc2c1ncn2CCNCCc1ccccc1`, the inhibition was inactive: 11.6%.

Consider `O=C(Cn1c(C(F)(F)F)nc2ccccc21)NCCCN1CCOCC1`, for which the inhibition was inactive: 14.4%.

In the case of `Cc1ccc2c(c1)C1CN(C)CCC1N2C(=O)COc1ccccc1F` (stereo not drawn), the inhibition was inactive: 3.61%.

For `Cc1ccc(S(=O)(=O)c2nc(-c3ccccc3Cl)oc2N(C)C2CCN(C)CC2)cc1`, the inhibition is inactive: -3.48%.

In the case of `CCOC(=O)Nc1ccc([As](=O)(O)O)c(O)c1`, the inhibition is inactive: 7.33%.

`Cc1cc(C)cc(N(CC(=O)N2CCn3c2nc2ccccc23)S(=O)(=O)c2c(C)noc2C)c1`: the inhibition was inactive: 9.09%.

Consider `CC(C)C[C@H](NC(=O)N1CCn2c1nc1ccccc12)C(=O)NCCc1ccccc1`, for which the inhibition is inactive: 6.61%.

For the compound `CCCCC(=O)Nc1nnc(/C=C/c2ccc(OC)cc2)s1`, the inhibition is inactive: -11.2%.

On to `Cc1ccc(N(CC(=O)N2CCn3c2nc2ccccc23)S(=O)(=O)c2c(C)n[nH]c2C)cc1`, for which the inhibition was inactive: 7.49%.

With `C[C@H](O)[C@@H]1C(=O)N2CCc3ccc(N4CCN(C)CC4)cc3[C@@H]2C[C@@H]1N(C)C(=O)NC1CCCCC1`, the inhibition was inactive: 2.06%.

As to `CC1CCNP(=O)(N(CCCl)CCCl)O1` (stereo not drawn), the inhibition was inactive: 10.4%.

For `COCC(=O)N(C)[C@H]1C[C@H]2c3cc(-c4ccccc4)ccc3CCN2C(=O)[C@H]1[C@H](C)O`, the inhibition was inactive: 12.1%.

As to `Cn1c(=O)c2c(ncn2CC(=O)N/N=C/c2ccc(Br)s2)n(C)c1=O`, the inhibition is inactive: 4.13%.

Turning to `COC(=O)c1ccccc1NC(=O)Cn1cnc2c1c(=O)n(C)c(=O)n2C`, the inhibition is inactive: 7.6%.

Consider `Cn1c(=O)n(Cc2ccccc2)c(=O)c2c1nc1n2CCN1Cc1ccco1`, for which the inhibition is inactive: 16.5%.

As to `CCc1nc2ccccc2n1CC(=O)N1CCN(S(=O)(=O)c2cccc(C(F)(F)F)c2)CC1`, the inhibition is inactive: 3.95%.

For the compound `O=P(Nc1ccccn1)(c1cccc2ccccc12)c1cccc2ccccc12`, the inhibition was inactive: 7.94%.

For `COc1ccccc1C(=O)OCCNC(=O)Cn1cnc2c1c(=O)n(C)c(=O)n2C`, the inhibition was inactive: 2.96%.

On to `Cc1cc(SC(NC=O)C(Cl)(Cl)Cl)ncn1` (stereo not drawn), for which the inhibition is inactive: 12.9%.

Turning to `CC(C)(C)NC(=O)Cn1c(SCC(=O)NC2CCCCC2)nc2ccccc21`, the inhibition was inactive: 13.9%.

As to `CCCNC(=O)Cn1c(=O)n(C)c2ccccc21`, the inhibition was inactive: 2.96%.

As for `CCNC(=S)N1CCn2c(nc3ccccc32)C1`, the inhibition is inactive: 3.44%.

Turning to `CC1CN(Cc2nc3c(c(=O)n(C)c(=O)n3C)n2CCN2CCOCC2)CC(C)O1` (stereo not drawn), the inhibition was inactive: 15%.

With `O=C(Cn1c(CCCO)nc2ccccc21)Nc1ccccc1-c1ccccc1`, the inhibition was inactive: 10.6%.

For `C/C(=N\NC(=O)Cn1c(C)nc2ccccc21)c1cccs1`, the inhibition is inactive: 22.4%.

As for `O=[N+]([O-])c1ccc(Nc2ccc(Oc3ccc([N+](=O)[O-])cc3[N+](=O)[O-])cc2)c([N+](=O)[O-])c1`, the inhibition was inactive: 13.1%.

Turning to `O=C(Cn1c(CC(=O)N2CCOCC2)nc2ccccc21)Nc1ccc2c(c1)OC(F)(F)O2`, the inhibition is inactive: 10.4%.

For `O=C(Cn1cnc2c(OCc3ccccc3)ncnc21)NCCCc1ccccc1`, the inhibition is inactive: 7.69%.

As to `CCC(=O)Nc1nnc(/C=C/c2ccccc2)s1`, the inhibition is inactive: -6.95%.

Consider `COCCN1CCn2c(nc3cc(NC(=O)c4ccc(OC)cc4)ccc32)C1`, for which the inhibition was inactive: -8.01%.

Turning to `CCS(=O)(=O)c1nc2ccccc2n1CC(=O)N1CCOCC1`, the inhibition is inactive: 12.9%.

For `CCC(C)c1ccc2oc(-c3ccc(NC(=O)Cn4cnc5c(=O)n(C)c(=O)n(C)c54)cc3)nc2c1` (stereo not drawn), the inhibition is inactive: 8.08%.

For the compound `CCC[n+]1cn(/C(C(=S)Nc2cccc(Cl)c2C)=C(/[O-])c2ccc(OC)c(OC)c2)c2ccccc21`, the inhibition is inactive: 27.9%.

For `Cn1c(=O)c2c(ncn2CC(=O)N2CCc3ccccc3C2)n(C)c1=O`, the inhibition was inactive: 13.1%.

As for `Cc1ccc2c(c1)[C@@H]1CN(C)CC[C@@H]1N2S(=O)(=O)c1ccc([N+](=O)[O-])cc1`, the inhibition was inactive: -24.5%.

`O=C(CCCCCNC(=O)N1CCn2c1nc1ccccc12)NCCc1ccccc1`: the inhibition is inactive: 19.3%.

For `COc1ccc(OCC(=O)N2c3ccc(C)cc3C3CN(C)CCC32)cc1` (stereo not drawn), the inhibition was inactive: -1.21%.

`NNC(=O)Cn1c(-c2ccccn2)nc2ccccc21`: the inhibition was inactive: -5.56%.

As to `COc1cc(NC(=O)[C@H](C)NC(=O)N2CCn3c2nc2ccccc23)cc(OC)c1`, the inhibition was inactive: 15.3%.

With `O=C(Cn1c(CO)nc2ccccc21)Nc1ccc2c(c1)OCCCO2`, the inhibition was inactive: 3.41%.

In the case of `Cn1c(=O)[nH]c(=O)c2c1ncn2CCN1CCCCC1`, the inhibition is inactive: 9.99%.

For the compound `COC(=O)C[C@H](NC(=O)Cn1cnc2c(OCc3ccccc3)ncnc21)C(=O)OC`, the inhibition is inactive: 1.48%.

`CCOC(=O)Nc1cccc([As](=O)(O)O)c1`: the inhibition is inactive: 6.02%.

`Cn1c(=O)c2c(ncn2CC(=O)NCc2cccnc2)n(C)c1=O`: the inhibition is inactive: -2.62%.

Consider `Cc1ccc(NC(=O)Cn2c(=S)[nH]c3ccccc32)cc1`, for which the inhibition is inactive: 6.49%.

Take `O=C(C1CCCN(S(=O)(=O)c2cccnc2)C1)N1CCn2c1nc1ccccc12` (stereo not drawn): the inhibition was inactive: 0.33%.

Turning to `O=C(Cn1cnc2ccccc21)Nc1ccc(SC(F)F)cc1`, the inhibition is inactive: -14.1%.

In the case of `CC(NC(=O)Cn1cnc2c1c(=O)n(C)c(=O)n2C)c1ccccc1` (stereo not drawn), the inhibition is inactive: -6.08%.

On to `COc1ccc(CNC(=O)Cn2cnc3c(NCc4ccccc4)ncnc32)cc1`, for which the inhibition was inactive: 20.9%.

`c1ccc(Cn2c(CNc3nc4ccccc4n3CCN3CCOCC3)nc3ccccc32)cc1`: the inhibition is inactive: 12.8%.

As to `Cc1nc2cc(C(F)(F)F)ccc2n1CCNc1nc(-c2ccc(F)cc2)cs1`, the inhibition was inactive: -3.83%.

Regarding `CCOCN(C(=O)Cn1cnc2ccccc21)c1c(C)cccc1CC`, the inhibition was inactive: 11.3%.

For the compound `CCC(C(=O)NC1CCCCC1)n1c(SCc2cccc(C)c2)nc2ccncc21` (stereo not drawn), the inhibition was inactive: 0.74%.

Consider `O=C(Nc1ccncc1[N+](=O)[O-])c1ccc([N+](=O)[O-])cc1[N+](=O)[O-]`, for which the inhibition was inactive: -31.8%.

`O=C(COc1ccccc1)OC1CN2CCC1CC2` (stereo not drawn): the inhibition is inactive: 8.96%.

For `O=C(Cn1cnc2ccccc21)Nc1ccc(F)c(F)c1`, the inhibition is inactive: -9.9%.

As for `COC(=O)c1cccc(NC(=O)Cn2cnc3c2c(=O)n(C)c(=O)n3C)c1`, the inhibition is inactive: 8.05%.

In the case of `Cc1ccc2c(c1)C1CN(C)CCC1N2S(=O)(=O)c1cccc(C(F)(F)F)c1` (stereo not drawn), the inhibition is inactive: -6.53%.

For the compound `O=C(Cn1cnc2c(OCc3ccccc3)ncnc21)N1CCN(c2ccccn2)CC1`, the inhibition is inactive: 2.18%.

Turning to `N#CCC(=O)N/N=C\c1cccc(OC/C=C/c2ccccc2)c1`, the inhibition was inactive: -18.8%.

For `CC(C)[C@H](NC(=O)N1CCn2c1nc1ccccc12)C(=O)N[C@H](Cc1ccccc1)C(=O)O`, the inhibition was inactive: 6.33%.

`O=C(Nc1ccccc1C(F)(F)F)N1CCC(n2c(=O)[nH]c3ccccc32)CC1`: the inhibition was inactive: 7.07%.

Turning to `Cc1ccc(C)c(S(=O)(=O)N2CCN(C(=O)Cn3cnc4c3c(=O)n(C)c(=O)n4C)CC2)c1`, the inhibition is inactive: 1.24%.

For the compound `CN(C)CCn1c(NCc2ccc3c(c2)OCO3)nc2ccccc21`, the inhibition was inactive: 11.2%.

For `COC(=O)C[C@H](NC(=O)Cn1cnc2c(NCc3ccccc3)ncnc21)C(=O)OC`, the inhibition was inactive: 10.5%.

Regarding `COP1(=S)c2c(C)nn(CCC#N)c2N=C(c2ccc(F)cc2)N1C` (stereo not drawn), the inhibition is inactive: 9.8%.

Regarding `CSc1nc(N)nc2c1ncn2CC(=O)Nc1ccc(C)c(C)c1`, the inhibition is inactive: 8.64%.

As to `N=c1n(CCN2CCCCC2)c2ccccc2n1CC(=O)c1cccs1`, the inhibition was inactive: 3.86%.

Regarding `COc1ccc2c(c1)C1(Nc3ccccc3-c3nc4ccccc4n31)C(=O)N2C` (stereo not drawn), the inhibition is inactive: 11.2%.

As for `CC(C)[C@H](NC(=O)N1CCn2c1nc1ccccc12)C(=O)NC1CC1`, the inhibition was inactive: 11.4%.

Take `COc1cccc(NC(=O)[C@H](CC(C)C)NC(=O)N2CCn3c2nc2ccccc23)c1`: the inhibition was inactive: 3.97%.
